Experimental intrinsic clearance values from OPERA 2.9

Intrinsic clearance (human, µL/min per 10^6 hepatocytes): higher is faster turnover, and 0 stands for none detected.

| SMILES | intrinsic clearance (µL/min/10^6 cells) |
|---|---|
| O=C(O)CCCOc1ccc(Cl)cc1Cl | 0 |
| CSc1nc(NC(C)C)nc(NC(C)C)n1 | 35.78 |
| COP(=S)(OC)SCN1C(=O)c2ccccc2C1=O | 23.82 |
| CCCOC(=O)c1ccccc1C(=O)OCCC | 858 |
| CCCCC(CC)COC(=O)CCCCC(=O)OCC(CC)CCCC (stereo unspecified) | 13.56 |
| CC(c1ccc(O)cc1)(c1ccc(O)cc1)c1ccc(O)cc1 | 30.8 |
| Cc1cc(N=Nc2ccccc2C)ccc1N | 6.89 |
| Cc1cc(Cl)ccc1OCC(=O)O | 0 |
| Brc1ccc(Oc2ccc(Br)cc2)cc1 | 12.4 |
| CCCCc1ccc(O)cc1 | 127 |
| FCC(F)(F)F | 0.02 |
| CCCCCCCCc1ccc(O)cc1 | 15.65 |
| FC(F)(F)C(Cl)Cl | 10.2 |
| CCOP(=O)(OCC)Oc1cc(C)nc(C(C)C)n1 | 34.62 |
| Nc1ccc(/N=N/c2ccccc2)cc1 | 15.7 |
| CC(C)(c1ccccc1)c1ccc(O)c(C(C)(C)c2ccccc2)c1 | 128 |
| O=S(=O)([O-])C(F)(F)C(F)(F)C(F)(F)C(F)(F)C(F)(F)C(F)(F)C(F)(F)C(F)(F)F.[K+] | 0 |
| CCCCOC(=O)c1ccccc1C(=O)OCCCC | 42.5 |
| COP(=S)(OC)Oc1ccc([N+](=O)[O-])c(C)c1 | 10.02 |
| CCC(C)(c1ccc(O)cc1)c1ccc(O)cc1 | 35.66 |
| O=c1ccc(=O)[nH][nH]1 | 0 |
| c1cc2c3c(cccc3c1)CC2 | 4.846 |
| Cc1cc(Cc2ccc(N)c(C)c2)ccc1N | 3.984 |
| Cc1ccc(N)c(N)c1 | 8.27 |
| Cc1cccc(N)c1 | 32.9 |
| Brc1cc(Br)cc(Br)c1 | 0 |
| CCOC(=O)C(O)(c1ccc(Cl)cc1)c1ccc(Cl)cc1 | 477 |
| Cc1ccc(N)cc1N | 0 |
| Oc1ccc(C2(c3ccc(O)cc3)c3ccccc3-c3ccccc32)cc1 | 22.4 |
| C[C@]12CCC(=O)C=C1CC[C@@H]1[C@@H]2CC[C@@]2(C)[C@H]1CC[C@]2(C)O | 12.7 |
| C[N+](C)(C)CC1CO1.[Cl-] (stereo unspecified) | 0 |
| O=[N+]([O-])c1ccc(Cl)cc1 | 400 |
| CN(C)c1ccc(Cc2ccc(N(C)C)cc2)cc1 | 18.85 |
| C/C(=NC#N)/N(C)Cc1c[n]c(Cl)cc1 | 0 |
| C=CCC1=C(C)C(OC(=O)C2C(C=C(C)C)C2(C)C)CC1=O (mixture of isomers) | 10.9 |

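OPERA's authors assembled the values from existing databases and did not measure them anew. One number stands for a compound and property, with no spread given. How each value was measured is not recorded, so precision varies. Where a salt, mixture or single isomer is drawn, the source does not say that exactly this form was tested. Some upstream entries may be estimates or bounds without being marked so.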

Data: OPERA 2.9 data sets, kmansouri/OPERA on GitHub.